The record followed here is PMC7616463, “Peptidic boronic acid Plasmodium falciparum SUB1 inhibitors with improved selectivity over human proteasome” (Journal of medicinal chemistry, 2024).

For this assay, the system named is human 20S proteasome (H20S), chymotrypsin-like β5 activity. In words: Human 20S proteasome kinetic assay (chymotrypsin-like β5 activity). Type of assay: biochemical. As to conditions: ratio of IC50 H20S to IC50 PfSUB1. The method, then:
The fluorescent Proteasome substrate LLVY-R110 (ex: 490 nm, Em:525 nm) (#MAK172, Sigma-Aldrich) was used to measure the chymotrypsin-like activity (β5) of the human 20S proteasome and was prepared according to the activity assay kit instructions. Cleavage of this peptide generated intense green fluorescence due to the R110 group and was monitored at 520-530 nm with excitation at 480-500 nm. The purified human 20S proteasome (BML-PW8720-0050, EnzoSciences), stored at 1mg/ml in 20 mM Tris-HCl pH 7.2, 1mM EDTA, 1mM DTT 1mM NaN3, 50% glycerol was diluted in TRIS-buffered saline (TBS, pH 7.4) to an intermediate concentration of 0.44 μM. […] The reactions were performed in white 96-well fluorescent microtiter-plate format (Nunc). The Substrate solution was added first (100 μl), followed by 1 μl of the inhibitor (50 μM intermediate stock) and 1 μl of the H20S proteasome at 0.44 μM. The IC50s were determined for a selection of potent PfSUB1 inhibitors. After sequential dilution of the inhibitors in 100% DMSO, 1 μl of each dilution was used in a 100 μl reaction containing the fluorescent substrate. The reaction was initiated by the addition of 1 μl of the 20S proteasome intermediate stock solution. The fluorescence increase was monitored using a SpectraMax M5e plate reader and SoftMax Pro-6.3 software Measure activity on a plate reader (ex: 490 nm, Em: 525 nm) with the photomultiplier tube (PMT) set to medium with readings every 3 min for one hour. All measurements were done in duplicate. The progress curves were plotted within GraphPad Prism 9.5.0.
For the compound `CC[C@H](C)[C@H](NC(=O)[C@@H](NC(=O)c1cccc(-c2ccccc2)n1)C1CCCC1)C(=O)NCC(=O)N[C@@H](C)B(O)O` [3b, ((3S,6S,12R)-6-((S)-sec-butyl)-3-cyclopentyl-1,4,7,10-tetraoxo-1-(6-phenylpyridin-2-yl)-2,5,8,11-tetraazatridecan-12-yl)boronic acid], the “S (H20S vs PfSUB1 inhibition)” value is reported as 0.75.

Turning to `CC[C@H](C)[C@H](NC(=O)[C@@H](NC(=O)c1cc(C)cc(C)c1)C1CCCC1)C(=O)NCC(=O)N[C@H]1CCC(=O)OB1O` [4c, N-((S)-1-cyclopentyl-2-(((2S,3S)-1-((2-(((R)-2-hydroxy-6-oxo-1,2-oxaborinan-3-yl)amino)-2-oxoethyl)amino)-3-methyl-1-oxopentan-2-yl)amino)-2-oxoethyl)-3,5-dimethylbenzamide], the “S (H20S vs PfSUB1 inhibition)” value is reported as 65.4.

For `CC[C@H](C)[C@H](NC(=O)[C@@H](NC(=O)c1ccc2ccccc2n1)C1CCCC1)C(=O)NCC(=O)N[C@H]1CCC(=O)OB1O` [4a, N-((S)-1-cyclopentyl-2-(((2S,3S)-1-((2-(((R)-2-hydroxy-6-oxo-1,2-oxaborinan-3-yl)amino)-2-oxoethyl)amino)-3-methyl-1-oxopentan-2-yl)amino)-2-oxoethyl) quinoline-2-carboxamide], the “S (H20S vs PfSUB1 inhibition)” value was determined as 11.3.

Consider `CC[C@H](C)[C@H](NC(=O)[C@@H](NC(=O)c1ccc2ccccc2n1)C1CCCC1)C(=O)NCC(=O)N[C@@H](C)B(O)O` [3a, ((3S,6S,12R)-6-((S)-sec-butyl)-3-cyclopentyl-1,4,7,10-tetraoxo-1-(quinolin-2-yl)-2,5,8,11-tetraazatridecan-12-yl)boronic acid], for which the “S (H20S vs PfSUB1 inhibition)” value is given as 0.6.

`CC[C@H](C)[C@H](NC(=O)[C@@H](NC(=O)c1cccc(-c2ccccc2)n1)C1CCCC1)C(=O)NCC(=O)N[C@H]1CCC(=O)OB1O` [4b, N-((S)-1-cyclopentyl-2-(((2S,3S)-1-((2-(((R)-2-hydroxy-6-oxo-1,2-oxaborinan-3-yl)amino)-2-oxoethyl)amino)-3-methyl-1-oxopentan-2-yl)amino)-2-oxoethyl)-6-phenylpicolinamide]: the “S (H20S vs PfSUB1 inhibition)” value is 12.3.
